According to ChEMBL document CHEMBL1138625, “Synthesis and evaluation of novel phenoxypropanolamine derivatives containing acetanilides as potent and selective beta3-adrenergic receptor agonists” (Bioorg Med Chem, 2009):

Columns and labels:
[1] = target: Beta-3 adrenergic receptor (Homo sapiens) (UniProt P13945)
[2] = target: Beta-1 adrenergic receptor (Homo sapiens) (UniProt P08588); test: Agonist activity at human adrenergic receptor expressed in CHO cells assessed as cAMP accumulation

For `O=C(Cc1ccccn1)Nc1ccc(CCNC[C@H](O)COc2cccc3[nH]c(=O)[nH]c23)cc1`, the EC50 [1] was 280 nM and the EC50 [2] was > 100000 nM.

For `O=C(Cc1ccccn1)Nc1ccc(CCNC[C@H](O)COc2cccnc2)cc1`, the EC50 [1] was 180 nM and the EC50 [2] was > 100000 nM.

In the case of `O=C(Cc1cccc(Cl)n1)Nc1ccc(CCNC[C@H](O)COc2ccccc2)cc1`, the EC50 [1] is reported as 43 nM and the EC50 [2] is reported as 55 nM.

`O=C(Cc1ccccn1)Nc1ccc(CCNC[C@H](O)COc2cccc3[nH]c4ccccc4c23)cc1` was tested, and the EC50 [1] was 250 nM and the EC50 [2] was > 100000 nM.

In the case of `O=C(Cc1nccn1-c1ccccc1)Nc1ccc(CCNC[C@H](O)COc2ccccc2)cc1`, the EC50 [1] is reported as 650 nM and the EC50 [2] is reported as > 100000 nM.

Molecule `O=C(Cc1nccn1Cc1ccc2ccccc2c1)Nc1ccc(CCNC[C@H](O)COc2ccccc2)cc1` has an EC50 [1] of 260 nM and an EC50 [2] of 69 nM.

With `O=C(Cc1nc2ccccc2n1Cc1ccccc1)Nc1ccc(CCNC[C@H](O)COc2ccccc2)cc1` the EC50 [1] was 140 nM and the EC50 [2] was > 100000 nM.

Molecule `O=C(Cc1cn(Cc2ccccc2)cn1)Nc1ccc(CCNC[C@H](O)COc2ccccc2)cc1` has an EC50 [1] of 130 nM and an EC50 [2] of 280 nM.

Work on `O=C(Cc1nccn1Cc1ccccc1)N1CCCc2cc(CCNC[C@H](O)COc3ccccc3)ccc21` yielded an EC50 [1] of 170 nM and an EC50 [2] of 120 nM.
